From ChEMBL document CHEMBL2177014, “Combining galantamine and memantine in multitargeted, new chemical entities potentially useful in Alzheimer's disease” (J Med Chem, 2012) come the findings set out here.

Amino acid sequences for entries named in this document (tags omitted).
UniProt Q00960, whole entry: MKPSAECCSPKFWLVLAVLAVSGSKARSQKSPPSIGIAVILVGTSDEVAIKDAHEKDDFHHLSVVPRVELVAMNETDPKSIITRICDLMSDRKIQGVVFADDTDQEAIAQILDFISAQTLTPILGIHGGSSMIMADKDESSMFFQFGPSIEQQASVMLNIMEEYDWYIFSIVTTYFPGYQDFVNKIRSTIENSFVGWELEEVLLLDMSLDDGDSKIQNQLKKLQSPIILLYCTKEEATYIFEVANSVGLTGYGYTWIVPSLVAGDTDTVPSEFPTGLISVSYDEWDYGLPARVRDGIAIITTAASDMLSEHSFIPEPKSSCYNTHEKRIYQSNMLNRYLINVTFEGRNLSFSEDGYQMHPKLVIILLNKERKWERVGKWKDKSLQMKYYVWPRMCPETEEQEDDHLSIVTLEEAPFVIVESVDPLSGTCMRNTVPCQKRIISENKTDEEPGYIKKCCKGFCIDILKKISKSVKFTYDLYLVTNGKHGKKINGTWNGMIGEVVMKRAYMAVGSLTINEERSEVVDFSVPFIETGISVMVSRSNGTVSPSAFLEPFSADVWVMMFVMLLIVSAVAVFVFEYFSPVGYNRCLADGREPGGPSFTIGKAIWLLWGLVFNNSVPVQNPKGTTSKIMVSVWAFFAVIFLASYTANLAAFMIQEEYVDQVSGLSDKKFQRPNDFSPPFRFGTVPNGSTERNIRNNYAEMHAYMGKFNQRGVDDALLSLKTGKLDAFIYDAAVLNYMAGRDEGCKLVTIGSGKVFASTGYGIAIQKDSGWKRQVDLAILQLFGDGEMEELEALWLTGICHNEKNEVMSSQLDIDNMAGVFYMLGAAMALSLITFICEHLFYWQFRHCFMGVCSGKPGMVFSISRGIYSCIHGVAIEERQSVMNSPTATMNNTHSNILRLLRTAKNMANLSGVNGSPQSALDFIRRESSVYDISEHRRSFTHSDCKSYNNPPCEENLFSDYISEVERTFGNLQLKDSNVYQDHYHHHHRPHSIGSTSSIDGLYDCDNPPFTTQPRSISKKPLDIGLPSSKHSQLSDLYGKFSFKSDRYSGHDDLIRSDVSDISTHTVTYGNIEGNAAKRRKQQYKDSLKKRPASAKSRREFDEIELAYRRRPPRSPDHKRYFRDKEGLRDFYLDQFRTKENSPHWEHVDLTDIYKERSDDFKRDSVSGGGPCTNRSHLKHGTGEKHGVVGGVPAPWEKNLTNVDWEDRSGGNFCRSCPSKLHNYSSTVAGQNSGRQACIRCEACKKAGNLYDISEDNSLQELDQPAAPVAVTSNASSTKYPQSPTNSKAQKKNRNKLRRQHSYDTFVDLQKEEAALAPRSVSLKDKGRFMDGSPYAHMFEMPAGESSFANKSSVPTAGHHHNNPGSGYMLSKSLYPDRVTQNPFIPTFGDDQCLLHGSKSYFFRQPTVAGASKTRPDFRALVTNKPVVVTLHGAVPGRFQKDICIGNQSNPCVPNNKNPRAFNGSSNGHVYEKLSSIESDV

The assay has as its target Glutamate receptor ionotropic, NMDA 2B (Rattus norvegicus, UniProt Q00960). Nature of the assay: Displacement of [3H]Ifenprodil from NMDAR-2B in Sprague-Dawley rat frontal cortex homogenates after 2 hrs by liquid scintillation counting. The class given is tissue-based.

A value given as a limit tells only on which side of the number the result lay.

As usually defined, the Ki is a dissociation constant, usually derived from enzyme kinetics or from competition with a known ligand. Read a high Ki as lower affinity. `CC12CC3CC(C)(C1)CC(N)(C3)C2` [MEMANTINE] came in with a Ki of more than 100 µM.
